Patent publication US20090203734A1, “F1F0-ATPASE INHIBITORS AND RELATED METHODS” (The Regents of the University of Michigan, priority 2008, published 2009)

Experiments:
[1] = target: F1Fo-ATPase (OSCP subunit) (Bos taurus, UniProt P13621); assay: ATP hydrolysis by SMPs reconstituted in the presence or absence of the OSCP
Ramos B cells [2] = assay: Early superoxide (O2-, ROS) response in Ramos B cells; type: cell-based; details: read-out: ROS EC50, Ramos cells; O2- response 1 h following incubation with drug
Ramos B cells [3] = assay: Cell death in Ramos B cells; type: cell-based; details: read-out: Cell death EC50, Ramos cells; cell death at 24 h
Jurkat T cells [4] = assay: Early superoxide (O2-, ROS) response in Jurkat T cells; type: cell-based
Jurkat T cells [5] = assay: Cell death in Jurkat T cells; type: cell-based
[6] = 75 μM PK11195, pre-incubation with MnTBAP
[7] = 75 μM PK11195, pre-incubation with Vitamin E

Compound: CCC(C)N(C)C(=O)c1cc2ccccc2c(-c2ccccc2Cl)n1 (stereo not shown)
- Inhibition of F1Fo-ATPase activity in SMPs reconstituted with vs without the OSCP [1]: more potent inhibitor of F1Fo-ATPase activity in the presence of the OSCP
- EC50 (Ramos B cells [2]): 100 µM
- EC50 (Ramos B cells [3]): 90 µM
- % ROS+ (Jurkat T cells [4]; [6]): 39.7 ± 2.8%
- % ROS+ (Jurkat T cells [4]; [7]): 33.9 ± 2.6%
- % Cell death (Jurkat T cells [5]; [6]): 68.9 ± 1.0%
- % Cell death (Jurkat T cells [5]; [7]): 55.9 ± 0.5%
